Where a name gives a salt, the structure may show the parent alone.
Test system: B16 F0 murine melanoma cells
Assay: Colony forming technique: chemotherapeutic and radiotherapeutic (^125I) effects in vitro
Format: cell-based
Settings: inhibition of growth, cold products
Protocol: The colony forming technique is involved, that is to say the growth of colonies of clones starting from tumour cells (B16 F0 murine melanoma cells) inoculated at a low concentration. This method makes it possible to visualize the cytotoxic and cytostatic properties of the compounds studied. The study was carried out in three parts:
The experiment is carried out on 6-well plates where 200 cells are inoculated in 2 ml of DMEM medium. After 20 hours, the medium is withdrawn and replaced with 2 ml of medium comprising the labelled compound at the desired concentration. This study is carried out in comparison with control wells comprising DMEM medium alone. […] The plates are incubated for 8 days and then the medium is withdrawn. The wells are rinsed with PBS and methanol is added for 3 minutes. Once attached, the cells are coloured with crystal violet with a contact time of 3 minutes. Subsequently, the colonies comprising more than 50 cells are counted using a dedicated counter. The growth of the treated colonies of cells is quantified in comparison with the controls. The activity of the product is expressed by a percentage of inhibition:
100−[(number of treated colonies)/(number of control colonies)]×100

CCN(CC)CCNC(=O)c1cccc2cc3cccc(I)c3nc12 [compound 102, N-(2-diethylaminoethyl)-5-iodoacridine-4-carboxamide dihydrochloride]
activity of the cold compound in comparison with the derivatives 84 and 151: 15 to 40 ×

Reference: US20100061928A1, “LABELLED ANALOGUES OF HALOBENZAMIDES AS RADIOPHARMACEUTICALS” (Institut National De La Sante et De La Recherche Medicale …, priority 2006, published 2010)
